Target: T1, human recombinant MAO-A (Homo sapiens, UniProt P21397)
T1 construct: purchased Sigma-Aldrich Química S.A., Alcobendas, Spain; host or cells: insect cells (BTI-TN-5B1-4) infected with recombinant baculovirus
Experiment: Determination of MAO isoforms activity (Amplex Red, p-tyramine), MAO-A
Assay type: biochemical
Conditions: p-tyramine 1 mM, mean ± spread of 5 experiments, read-out: IC50 hMAO-A

Amino acid sequences for entries named in this document (tags omitted).
UniProt P21397, whole entry: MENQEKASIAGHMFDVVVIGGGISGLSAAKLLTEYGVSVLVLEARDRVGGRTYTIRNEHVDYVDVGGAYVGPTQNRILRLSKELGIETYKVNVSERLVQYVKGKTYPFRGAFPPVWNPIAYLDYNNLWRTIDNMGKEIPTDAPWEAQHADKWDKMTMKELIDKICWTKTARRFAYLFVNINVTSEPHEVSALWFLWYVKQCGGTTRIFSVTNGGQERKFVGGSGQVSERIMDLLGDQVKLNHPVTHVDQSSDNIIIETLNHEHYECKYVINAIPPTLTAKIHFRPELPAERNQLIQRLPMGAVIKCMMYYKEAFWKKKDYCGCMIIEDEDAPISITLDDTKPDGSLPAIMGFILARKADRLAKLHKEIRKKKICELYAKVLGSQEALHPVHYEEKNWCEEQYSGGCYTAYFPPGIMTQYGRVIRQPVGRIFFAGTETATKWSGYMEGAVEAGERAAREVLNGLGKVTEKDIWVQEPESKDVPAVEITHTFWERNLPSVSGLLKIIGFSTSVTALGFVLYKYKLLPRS

**Q.** How did the IC50 turn out when CC(C)NNC(=O)c1ccncc1 [Iproniazid, iproniazid, reference compound] was run?
**A.** 6.56 ± 0.76 µM

Source: US10253000B2, “Pyridazin-3(2H)-one derivatives as monoamine oxidase selective isoform B inhibitors” (UNIVERSIDADE DE VIGO, priority 2014, dated 2019)
